Test results published in patent US20160368873A1, “Optically Active Form of Mepenzolate, and Ameliorating Agent for Chronic Obstructive Pulmonary Disease Which Contains Same as Active Ingredient” (LTT BIO-PHARMA CO., LTD., priority 2014, published 2016).

Key:
ICR mice [1] = test: Effect on methacholine-induced airway constriction (1) (Test Example 3.1); format: in vivo; settings: 3.75 μg/kg via the airway, 1 h before nebulized methacholine, FIG. 5
Procedure: (§1) Increase in airway resistance induced by methacoline was measured.
4 to 6 week old ICR mice received 1 mg/mL methacoline by nebulization over 20 seconds and this was repeated five times. After each administration of methacoline was completed, the airway resistance was measured by a snap shot technique. All the data were analyzed by using FlexiVent software.
(§2) One hour after administration, the mice received five exposures to nebulized methacoline by the above-mentioned method and the airway resistance at the time of each administration was measured.

ICR mice [2] = test: Effect on methacholine-induced airway constriction (2) (Test Example 3.2); format: in vivo; settings: 3.8 μg/kg via the airway, 1 h before nebulized methacholine, FIG. 7
Procedure: as §1
4 to 6 week old ICR mice were anesthetized with chloral hydrate (500 mg/kg), a tracheostomy was performed, and a metal tube […] in diameter was inserted into the trachea.
The mice were mechanically ventilated at 150 respirations/minute with a displacement per one cycle of 8.7 mL/kg and a positive end-expiratory pressure of 2 to 3 cmH2O.
The mice were exposed to nebulized methacholine (5 mg/kg) for 20 seconds four times at intervals of 40 seconds to induce airway resistance by methacholine, and the airway resistance was measured by a snap shot technique.
as §2
The data were analyzed by using FlexiVent software.

C[N+]1(C)CCC[C@@H](OC(=O)C(O)(c2ccccc2)c2ccccc2)C1.[Br-] (racemic) [racemate, mepenzolate bromide, reference compound]
Effect of suppressing airway resistance (methacholine-induced) (ICR mice [1]): significant effect of suppressing airway resistance | Effect of suppressing airway resistance (methacholine-induced), low dose (ICR mice [2]): significant effect of suppressing airway resistance
